Results on 1 substance are retold here after patent publication US10220069B2, “Compositions and methods for treating diabetes” (THE JOHNS HOPKINS UNIVERSITY, priority 2014, dated 2019).

Sequences of proteins named here, by UniProt entry; tags and fusion partners are left off. A change or cut given only in a name is not applied to a line headed by its entry.
UniProt Q91V45: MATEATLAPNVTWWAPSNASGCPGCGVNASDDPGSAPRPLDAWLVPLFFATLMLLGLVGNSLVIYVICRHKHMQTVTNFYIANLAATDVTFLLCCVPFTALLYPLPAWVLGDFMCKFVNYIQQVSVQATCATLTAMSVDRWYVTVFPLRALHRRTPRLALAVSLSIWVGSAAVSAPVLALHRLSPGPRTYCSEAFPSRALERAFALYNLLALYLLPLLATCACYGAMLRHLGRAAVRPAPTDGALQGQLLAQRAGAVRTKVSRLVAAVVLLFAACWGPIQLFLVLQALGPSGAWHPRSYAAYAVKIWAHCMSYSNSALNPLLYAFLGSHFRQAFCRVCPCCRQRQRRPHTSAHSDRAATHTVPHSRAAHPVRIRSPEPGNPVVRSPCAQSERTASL

Experiment [1] addresses T1, Kiss1R (Mus musculus, UniProt Q91V45).
T1 construct: Mouse brain, mouse islets, insulinoma cells, and human islets express Kiss1R; from tissue; host or cells: isolated mouse pancreatic islets (WT / Kiss1Rfl/fl, C57Bl/6 background)
Put plainly: Islet cAMP concentrations (ELISA) in response to kisspeptin. Type of experiment: cell-based. As for the experimental part:
For studies with plasma incubation, a final concentration of plasma was 1% or 10% (vol/vol). Plasma was treated with a protease inhibitor cocktail containing 4-(2-Aminoethyl) benzenesulfonyl fluoride hydrochloride (1 mM), Aprotinin (0.8 μM), bestatin (50 μM), (1S,2S)-2-(((S)-1-((4-Guanidinobutyl)amino)-4-methyl-1-oxopentan-2-yl)carbamoyl)cyclopropanecarboxylic acid (15 μM), EDTA (5 μM), leupeptin (20 μM), pepstatin A (10 μM) (Liu et al., 2013) (Thermo-Fisher), K54, K10, E4 were added at the concentrations indicated in the relevant figures. Islets were taken in 0.18M HCL/70% ethanol to extract and measure total islet insulin content. cAMP concentrations were measured in islet extracts using ELISA (Enzo Life Sciences).

The target in experiment [2] is T1, Kiss1R. The experiment can be described thus: Glucose stimulated insulin secretion (GSIS) from cultured mouse islets, static incubation. Type of experiment: cell-based. More on the design: GSIS at very high kisspeptin concentration: dose or concentration left out as unconfirmed. The method, then: Isolated Islet Studies. Islet isolation was performed by collagenase digestion, gradient centrifugation, and three rounds of microscope-assisted manual picking of islets. Static incubation studies were conducted as previously described with 20 handpicked, equal-sized islets were studied in each group (Song et al., 2011). After overnight culture (37_C, 5% CO2, and 95% O2 in humid chamber) of isolated islets in RPMI 1640 (Mediatech) containing 5 mM glucose, 1% each Na-Pyruvate, HEPES, Penicillin/Streptomycin, and 0.2% BSA, islets were switched to either 10 or 20 mM glucose containing RPMI 1640. Where indicated, Kisspeptin-10 (0-100 nM, and […]), E4 (10 nM), or vehicle (PBS) was added. After 30 min incubation glucose concentrations, supernatant was taken for insulin measurements and pelleted islets were taken in acid ethanol (0.18M HCl in 70% ethanol) for insulin measurements in islets (ELISA, Alpco). Islet protein concentration was measured using the BCA method (Thermo Fisher). Dose response curves of GSIS inhibition by Kisspeptin-54 or Kisspeptin-10 (0-100 nM) to serve as a functional bioassay for plasma kisspeptin1 activity performed at six separate times provided intra-assay and interassay coefficient of variations of 7.3% and 9.2%, respectively.
Islet studies. Islet isolation was performed by collagenase digestion, gradient centrifugation and three rounds of microscope-assisted manual picking of islets (Song et al., 2011). Static incubation studies were conducted as previously described with 20 hand-picked equalized islets were studied in each group. Islets were cultured in RPMI 1640 medium (Invitrogen) containing 10 or 20 mM D-glucose (as indicated) and supplemented with 0.2% bovine serum albumin, 1% each Na-Pyruvate, HEPES, Penicillin/Streptomycin. […] Islet protein concentration was measured using the BCA method (Thermo Fisher).
Insulin secretion during static incubation. […] Islet protein concentration was measured using the BCA method (Thermo Fisher). […]

Experiment [3] has as its target T1, Kiss1R. Put plainly: Islet perifusion assay, first and second phase GSIS. Type of experiment: cell-based. As to conditions: isolated mouse islets. The method, then: Perifusion studies were performed as previously published (Song et al., 2013; Song et al., 2011) with slight modifications. The perifusate was Krebs ringer buffer (KRB) (37 C, pH 7.4) containing 0.2% BSA fraction V, 24 mM sodium bicarbonate and was gassed with 95% air and 5% CO2. Perifusion (1 ml/min) occurred for the first 30 minutes with a KRB containing 3 mM glucose for equilibration, after which time the perifusate was collected in 1 ml fractions. After additional 10 minutes, glucose in the perifusate was increased to 10 mM. Where indicated, K10 (10 nM) or E4 (10 nM) was added to the perifusate. Insulin was measured in selected individual eluent fractions at 30, 35, 40, 42, 45, 50, 55, 60 min (Alpco ELISA). The first 10 minutes after increasing glucose was defined as first phase, the period thereafter was defined as second phase of insulin secretion. At the end of the perifusion protocol, 30 mM KCL was administered into the perifusate to depolarize β-cells. Insulin levels were normalized to total islet protein, which was spectrophotometrically determined (Eppendorf) after completion of the perifusion protocol.

Experiment [4] has as its target T1, Kiss1R. Put plainly: ipGTT with ip coinjection of kisspeptin and glucose. Type of experiment: in vivo. The method, then:
Intraperitoneal glucose tolerance (ipGTT) and insulin tolerance (ipITT) tests were performed according to standard protocols (Song et al., 2013; Song et al., 2011). After 9 am-3 pm fasting, animals were administered 20% D-glucose (via ip injection), insulin 0.5 U/kg i.p. (Novolin), glucagon (100 μg/kg i.p. (Sigma)). K54 ([…] Gly-Ala-Val-Leu-Val-Gln-Arg-Glu- Lys-Asp-Leu-Pro-Asn-Tyr-Asn-Trp-Asn-Ser-Phe-Gly-Leu-Arg-Phe-NH2 (SEQ ID NO:34), 10 nmol; Calbiochem), or K10 (Tyr-Asn-Trp-Asn-Ser-Phe-Gly-Leu-Arg-Phe-NH2 (SEQ ID NO:35), 10 nmol; Calbiochem) was administered simultaneously with glucose during ipGTT. The glucagon receptor antagonist GAI (N-(3-Cyano-6-(1,1-dimethylpropyl)-4,5,6,7-tetrahydro-1-benzothien-2-yl)-2-ethylbutanamide (Qureshi et al., 2004) and its non-active analogue were administered (50 mg/kg i.p. in DMSO) in HFD fed and Lepr^db/db mice 60 min before i. GTT. Intraperitoneal pyruvate converstion (1 g/kg i.p.) test (ipPCT) in ΔL-Prkar1a mice was performed in the fed state (9 am) to avoid any confounding effects of fasting-induced elevated endogenous glucagon levels. Tail-vein blood was collected at the indicated times in figures for glucose and insulin measurements. Serum insulin was measured using mouse magnetic bead panel (Millipore, Luminex). Plasma for glucagon measurements was drawn from mice in the fed state at 9 am, unless otherwise noted for fasting studies. […]

Entries after “also recorded” stand apart in the source; their conditions may differ.

Take “Tyr-Asn-Trp-Asn-Ser-Phe-Gly-Leu-Arg-Phe-NH2 [K10]”: the “islet cAMP production in response to exendin-4 (E4)” value with Kiss1R [1] (Kiss1Rfl/fl (WT) islets) is on record as “reduces E4-stimulated cAMP levels”. Besides, the “islet cAMP concentrations” value with Kiss1R [1] (WT mouse islets, 10 mM glucose, 10 nM) is reported as “reduced cAMP production”. In the experiment with Kiss1R [2] (Kiss1Rfl/fl and Panc-DKiss1R islets), the “GSIS at very high kisspeptin concentration” value was “GSIS stimulation from both Kiss1Rfl/fl and Panc-DKiss1R islets”. For the same substance, the “GSIS from Panc-DKiss1R islets” value with Kiss1R [2] (islets lacking Kiss1R, nanomolar concentrations) is reported as “resistant to K10 mediated GSIS suppression”. Besides, the “GSIS from Kiss1Rfl/fl (WT) mouse islets” value with Kiss1R [2] (static incubation, nanomolar concentrations (0-100 nM), 10 or 20 mM glucose) is recorded as “equally effective in suppressing GSIS; also recorded: suppressed GSIS”. Also, the “E4-potentiated GSIS, first and second phase” value with Kiss1R [3] is “suppressed”. The “first (0-10 min after glucose stimulation) and second phases of GSIS” value in the experiment with Kiss1R [3] (10 mM glucose) is on record as “suppressed”. Besides, in the experiment with Kiss1R [4] (10 nmol ip with glucose during ipGTT), the “in vivo GSIS in control (Kiss1rfl/fl, WT) mice” value is “equally effective in suppressing GSIS; also recorded: suppressed GSIS”. In addition, in the experiment with Kiss1R [4] (acute administration, 10 nmol ip), the “glucose tolerance in WT mice” value is “impaired glucose tolerance”.
